From publication PMC6706415 come the findings set out here.

In experiment [1] the target is casein coated-gold nanoparticles (βCas AuNPs). Kind of experiment: co-sedimentation; 6.25 µM βCas or equivalent βCas AuNPs incubated with 2-1137 µM Aβm or Aβo for 48 h at 37 °C in deionized water; centrifuged at 17,300 x g for 30 min; protein in the pellet quantified by BCA.
For experiment [2] the target is unchanged. Description: thermogravimetric analysis (TGA) of centrifuged pellets; pellets of βCas or βCas AuNPs incubated with Aβ as for the BCA assay; held at 80 °C for 30 min, scanned 80-800 °C at 10 °C/min under nitrogen.

Regarding “amyloid beta 42 monomers (from UniProt P05067 672-713) (peptide)”, in experiment [1], the maximum binding capacity (βCas AuNPs, 6.25 µM βCas equivalent) turned out to be 152 µM. For the same substance, the Aβ concentration beyond which the TGA curve no longer changed (binding saturation) in experiment [2] is 0.3 mM.

With “amyloid beta 42 oligomers (from UniProt P05067 672-713) (peptide)”, in experiment [1], the maximum binding capacity (βCas AuNPs, 6.25 µM βCas equivalent) stood at 191 µM.
